Assay results: ChEMBL document CHEMBL5126566, “Comparison of three zinc binding groups for HDAC inhibitors - A potency, selectivity and enzymatic kinetics study” (Bioorg Med Chem Lett, 2022)

The chains behind the UniProt entries cited, without tags or fusion partners. Where a name states a change or a piece, a line headed by the entry shows the natural chain unless it says otherwise.
UniProt Q13547, whole entry: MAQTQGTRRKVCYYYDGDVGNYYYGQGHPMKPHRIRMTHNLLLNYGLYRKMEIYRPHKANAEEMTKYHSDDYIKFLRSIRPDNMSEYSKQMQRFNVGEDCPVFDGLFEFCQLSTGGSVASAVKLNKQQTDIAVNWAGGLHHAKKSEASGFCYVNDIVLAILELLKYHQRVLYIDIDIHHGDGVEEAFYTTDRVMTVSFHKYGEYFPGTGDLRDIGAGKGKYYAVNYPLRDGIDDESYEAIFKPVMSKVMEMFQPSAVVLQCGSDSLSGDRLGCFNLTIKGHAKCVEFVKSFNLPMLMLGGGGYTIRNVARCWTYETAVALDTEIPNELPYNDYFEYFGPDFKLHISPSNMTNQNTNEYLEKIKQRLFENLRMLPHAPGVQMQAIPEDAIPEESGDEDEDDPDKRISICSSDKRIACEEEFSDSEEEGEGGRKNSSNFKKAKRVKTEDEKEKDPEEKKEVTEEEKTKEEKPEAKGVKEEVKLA
UniProt Q92769, whole entry: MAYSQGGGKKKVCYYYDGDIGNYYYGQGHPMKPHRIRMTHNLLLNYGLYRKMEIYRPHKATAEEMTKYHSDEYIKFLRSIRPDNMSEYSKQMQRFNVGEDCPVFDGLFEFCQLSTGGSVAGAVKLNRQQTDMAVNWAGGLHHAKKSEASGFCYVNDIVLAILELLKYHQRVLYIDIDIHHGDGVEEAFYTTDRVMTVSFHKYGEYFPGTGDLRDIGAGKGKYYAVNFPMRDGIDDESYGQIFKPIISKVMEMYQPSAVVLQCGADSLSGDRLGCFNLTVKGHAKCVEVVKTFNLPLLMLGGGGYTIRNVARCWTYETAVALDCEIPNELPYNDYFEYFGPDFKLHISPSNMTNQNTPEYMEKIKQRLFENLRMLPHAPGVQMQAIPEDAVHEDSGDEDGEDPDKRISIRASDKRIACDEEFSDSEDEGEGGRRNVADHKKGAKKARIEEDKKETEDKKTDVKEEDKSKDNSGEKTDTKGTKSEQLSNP
UniProt O15379: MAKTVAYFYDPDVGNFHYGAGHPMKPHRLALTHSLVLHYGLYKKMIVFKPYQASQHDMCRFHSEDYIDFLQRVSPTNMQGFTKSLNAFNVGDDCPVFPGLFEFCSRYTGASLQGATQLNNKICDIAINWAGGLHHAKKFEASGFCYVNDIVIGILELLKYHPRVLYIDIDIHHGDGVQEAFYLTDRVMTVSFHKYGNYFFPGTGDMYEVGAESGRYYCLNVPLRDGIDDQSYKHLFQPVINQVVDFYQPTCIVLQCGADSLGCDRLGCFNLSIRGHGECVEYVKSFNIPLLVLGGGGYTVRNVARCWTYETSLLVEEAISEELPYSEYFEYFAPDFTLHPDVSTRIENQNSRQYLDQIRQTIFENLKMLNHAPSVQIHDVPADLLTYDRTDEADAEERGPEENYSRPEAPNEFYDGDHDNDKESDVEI

Key:
[1] = biological target: Histone deacetylase 1 (Homo sapiens, UniProt Q13547); assay: Ratio of IC50 for HDAC1 (unknown origin) preincubated for 5 mins to IC50 for HDAC1 (unknown origin) preincubated for 120 mins
[2] = biological target: Histone deacetylase 2 (Homo sapiens, UniProt Q92769); assay: Ratio of IC50 for HDAC2 (unknown origin) preincubated for 5 mins to IC50 for HDAC2 (unknown origin) preincubated for 120 mins
[3] = biological target: Histone deacetylase 3 (Homo sapiens, UniProt O15379); assay: Ratio of IC50 for HDAC3 (unknown origin) preincubated for 5 mins to IC50 for HDAC3 (unknown origin) preincubated for 120 mins

Measured: Ratio IC50

CCCNNC(=O)CCCCCCC(=O)Nc1ccccc1
3: all assays above
